Source: patent US8735439B2, “Chlorin e6-folic acid conjugate, preparation method thereof, and a pharmaceutical composition for the treatment of cancer comprising the same” (Diatech Korea Co., Ltd., priority 2009, dated 2014)

Experiments:
[1] = in D2O, standard for φΔ measurement; cited from earlier work
HeLa tumor cells = assay: Cytotoxicity (antiproliferative assay) in the absence of light exposure; format: cell-based; conditions: 24 hr incubation
Protocol: Cytotoxicity was analyzed, considering the intensity of proliferative processes in cells, photosensitizer concentration, and dose of optical power. For each point, 3 flasks with cell monolayer were used.
The monolayer culture of HeLa tumor cells was chosen and used as the cell.
The culture of HeLa tumor cells was grown in nutrient medium 199 or in nutrient medium containing hemohydrolyzate supplemented with 10% fetal bovine serum and […] of kanamycin. […]
Flasks with light-protective cover (dark cytotoxicity) were incubated at 37.5° C. for 1 hour. The cells were washed with Hank's solution 4 times. 2.0 ml of fresh nutrient medium were added, and the cells were irradiated at the temperature of melting ice for 5, 10, 15 or 20 mins by the light flux of a “METALAZ” laser medical device (wavelength: 627.8 nm, 578.2 or 510.6 nm) or “LD 680-2000” (wavelength: 670-690 nm), depending on the wavelength of maximum spectral absorption of the studied photosensitizer, at a dose of 40 J/cm^2. After 20-24 hours, the number of tumor cell was counted in Goriaev's chamber.

Substance	φΔ of the standard [1]	cytotoxicity in the absence of light exposure (HeLa tumor cells)
Tetra(n-sulfophenyl) porphyrin [Tetra(n-sulfophenyl) porphyrin (TSPP)]	0.7	–
[γ-(6-aminohexyl)folic acid]-chlorin e6 [chlorin e6 conjugate]	–	no cytotoxicity
